Data on 2 molecules can be found in article PMC6233196 (Nature Communications, 2018).

Amino acid sequences for entries named in this document (tags omitted). Residues count along the entry.
UniProt Q9R1M7, 24-1135: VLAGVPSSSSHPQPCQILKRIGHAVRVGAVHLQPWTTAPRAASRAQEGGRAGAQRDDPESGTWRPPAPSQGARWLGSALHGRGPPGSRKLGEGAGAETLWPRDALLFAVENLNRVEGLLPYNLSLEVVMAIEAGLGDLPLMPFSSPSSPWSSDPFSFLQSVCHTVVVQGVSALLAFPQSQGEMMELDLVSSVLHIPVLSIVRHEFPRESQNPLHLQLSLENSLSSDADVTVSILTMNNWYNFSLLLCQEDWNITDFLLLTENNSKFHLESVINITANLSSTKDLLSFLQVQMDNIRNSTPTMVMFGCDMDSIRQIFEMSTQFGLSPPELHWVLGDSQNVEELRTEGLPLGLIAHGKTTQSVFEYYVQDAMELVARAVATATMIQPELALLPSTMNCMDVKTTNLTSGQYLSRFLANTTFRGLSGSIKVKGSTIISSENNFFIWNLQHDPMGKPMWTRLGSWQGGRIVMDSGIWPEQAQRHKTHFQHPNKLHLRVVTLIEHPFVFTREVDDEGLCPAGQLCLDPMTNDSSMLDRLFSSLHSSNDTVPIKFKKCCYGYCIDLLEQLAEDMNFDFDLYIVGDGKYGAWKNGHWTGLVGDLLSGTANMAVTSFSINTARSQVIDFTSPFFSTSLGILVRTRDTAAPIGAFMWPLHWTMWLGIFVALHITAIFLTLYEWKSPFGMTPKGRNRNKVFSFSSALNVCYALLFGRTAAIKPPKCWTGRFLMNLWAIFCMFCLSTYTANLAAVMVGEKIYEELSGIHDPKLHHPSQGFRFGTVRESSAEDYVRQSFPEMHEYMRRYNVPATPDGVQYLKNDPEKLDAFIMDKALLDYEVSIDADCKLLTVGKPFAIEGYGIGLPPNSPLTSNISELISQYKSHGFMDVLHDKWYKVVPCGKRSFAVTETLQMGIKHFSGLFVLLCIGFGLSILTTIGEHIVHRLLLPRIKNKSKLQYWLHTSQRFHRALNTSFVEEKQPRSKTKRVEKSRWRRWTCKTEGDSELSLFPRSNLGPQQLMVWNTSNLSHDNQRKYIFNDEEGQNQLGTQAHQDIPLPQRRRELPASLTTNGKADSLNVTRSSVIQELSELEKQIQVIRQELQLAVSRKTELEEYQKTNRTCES
UniProt Q9R1M7, 24-1135 C859S/C913S: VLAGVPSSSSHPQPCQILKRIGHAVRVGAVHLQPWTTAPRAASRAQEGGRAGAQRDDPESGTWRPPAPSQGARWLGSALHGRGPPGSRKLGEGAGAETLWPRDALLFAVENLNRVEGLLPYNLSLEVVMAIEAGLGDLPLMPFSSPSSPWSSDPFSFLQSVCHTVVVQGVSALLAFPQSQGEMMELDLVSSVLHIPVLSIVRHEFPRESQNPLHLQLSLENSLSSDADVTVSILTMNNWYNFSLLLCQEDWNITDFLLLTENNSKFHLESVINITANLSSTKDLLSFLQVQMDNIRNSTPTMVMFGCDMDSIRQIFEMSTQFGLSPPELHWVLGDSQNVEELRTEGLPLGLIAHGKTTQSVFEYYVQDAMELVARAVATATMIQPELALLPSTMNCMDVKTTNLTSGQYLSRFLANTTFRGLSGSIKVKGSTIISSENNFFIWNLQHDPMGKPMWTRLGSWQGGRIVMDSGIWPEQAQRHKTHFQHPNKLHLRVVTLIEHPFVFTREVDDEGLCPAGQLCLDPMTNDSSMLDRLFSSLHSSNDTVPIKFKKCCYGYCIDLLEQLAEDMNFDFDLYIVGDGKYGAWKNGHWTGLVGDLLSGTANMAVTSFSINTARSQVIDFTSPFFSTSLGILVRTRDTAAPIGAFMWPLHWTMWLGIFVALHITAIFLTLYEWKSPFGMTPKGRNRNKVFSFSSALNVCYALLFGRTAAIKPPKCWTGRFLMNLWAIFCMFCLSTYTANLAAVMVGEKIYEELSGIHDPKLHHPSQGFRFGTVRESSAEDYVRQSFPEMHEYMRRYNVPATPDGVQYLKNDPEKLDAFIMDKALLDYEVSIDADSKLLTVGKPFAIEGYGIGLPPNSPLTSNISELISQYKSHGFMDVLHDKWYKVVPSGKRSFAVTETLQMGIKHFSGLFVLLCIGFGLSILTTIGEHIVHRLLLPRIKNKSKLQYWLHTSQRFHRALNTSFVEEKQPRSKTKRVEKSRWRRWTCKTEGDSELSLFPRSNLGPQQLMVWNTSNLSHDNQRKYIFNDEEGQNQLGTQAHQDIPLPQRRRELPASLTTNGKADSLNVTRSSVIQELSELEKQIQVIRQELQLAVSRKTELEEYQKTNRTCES

The structures appear in SMILES notation. Values joined by “and” are separate entries in the source; they are usually repeats but may differ in a detail not shown here. Identical values can stand only once.

The target of assay [1] is T1, GluN1/GluN3A receptors (Rattus norvegicus, UniProt P35439+Q9R1M7). The assay can be described thus: Whole-cell patch-clamp of glycine currents in HEK293 cells expressing wild-type GluN1/GluN3A. The settings on record: for Washout (dissociation) time constant τoff, active state: continuous glycine; for Washout (dissociation) time constant τoff, resting state: pulses of glycine. In general terms: In patch-clamp work, channel activity is measured electrically.

Assay [2] deals with T1, GluN1/GluN3A receptors. Put plainly: Two-electrode voltage-clamp in Xenopus oocytes expressing wild-type GluN1/GluN3A. Format: cell-based. Also on record: while we record from intact (i.e. full length) membrane-imbedded receptors; expressed in transfected cells; host or cells: HEK293 cells. Here is the method: (§1) Oocytes from Xenopus lævis (Xenopus Express, Rennes, France) were used for heterologous expression of recombinant GluN1/GluN3A receptors studied using two-electrode voltage-clamp (TEVC). TEVC recordings were performed 3–4 days following injection. […] Each oocyte was co-injected with a mixture of GluN1 and GluN3A cDNA at a concentration of 50 ng/µl and at a 1:1 ratio. The standard external solution contained (in mM): 100 NaCl, 2.5 KCl, 0.3 BaCl2, 5 HEPES, 0.01 DTPA (diethylenetriamine-pentaacetic acid), pH 7.3. […]
(§2) EC50, a and nH were set as free parameters.
In general terms: Two-electrode voltage clamp holds a large cell at a set potential and records current.

The target in assay [3] is GluN1/GluN3A-C859S-C913S receptors (Rattus norvegicus, UniProt P35439+Q9R1M7, C859S/C913S). The settings on record: CGP-78608 500 nM, glycine 100 µM. Here is the method: (§3) Cells were transfected using polyethylenimine with GluN1, GluN3A and GFP plasmids at a 1:3:1 ratio (0.3, 0.9 and 0.3 ng/µl respectively). Recordings were performed 24–48 h following cell transfection. […] EC50, a and nH were set as free parameters.

The target of assay [4] is GluN1-C744S-C798S/GluN3A-C859S-C913S receptors (Rattus norvegicus, UniProt P35439+Q9R1M7, C744S/C798S/C859S/C913S). The settings on record: CGP-78608 500 nM, glycine 100 µM. Here is the method: as §3
For assay [5], the target named is GluN1-C744S-C798S/GluN3A receptors (Rattus norvegicus, UniProt P35439+Q9R1M7, C744S/C798S). The settings on record: CGP-78608 500 nM, glycine 100 µM. As to the method:
as §3

The target of assay [6] is GluN1-CS/GluN3A-CS receptors (Rattus norvegicus, UniProt P35439+Q9R1M7, C744S/C798S/C859S/C913S). Here is the method:
as §1, §2

[7] abbreviates: CGP-78608 500 nM pre-incubated, glycine 1 mM, n = 5.
The mark [8] stands for this setting: CGP-78608 500 nM, listed as CGP.
Where [9] appears, read: in presence of 500 nM CGP-78608.

As for `C[C@@H](NCc1cc(Br)cc2[nH]c(=O)c(=O)[nH]c12)P(=O)(O)O.Cl` [CGP-78608, [(1 S)-1-[[(7-Bromo-1,2,3,4-tetrahydro-2,3-dioxo-5-quinoxalinyl)methyl]amino]ethyl]phosphonic acid hydrochloride], the “Hill coefficient nH of potentiation dose-response curve” value at GluN1/GluN3A receptors [1] (100 µM glycine, peak current) was 1.45. Moreover, on GluN1/GluN3A receptors [1] (setting [7]), the “Potentiation of peak current” value was > 100 fold and the “Potentiation of steady-state current” value was > 1000 fold. At GluN1/GluN3A receptors [1] (CGP-78608 500 nM), the “Washout (dissociation) time constant τoff, active state” value came out at 27.6 ± 6.3 s and the “Washout (dissociation) time constant τoff, resting state” value worked out at 22.5 ± 4.2 s. At GluN1/GluN3A receptors [1] (setting [8]), the “Washout (dissociation) time constant τoff, active state” value was determined as 28 s and the “Washout (dissociation) time constant τoff, resting state” value is 17 s. The “Potentiation when applied after glycine (post-Gly)” value at GluN1/GluN3A receptors [1] (CGP-78608 500 nM, receptors pre-occupied with glycine) is “only minimal potentiation”. The Reversibility of potentiation result on GluN1/GluN3A receptors [1] (washout, same cell) is “fully reversible”. Also, the “Extent of desensitization Iss/Ipeak” value on GluN1/GluN3A receptors [1] (with CGP-78608 500 nM, glycine 100 µM, control 0.30 ± 0.03) is reported as 0.80 ± 0.03. Also, the “Desensitization kinetics τdes” value on GluN1/GluN3A receptors [1] (with CGP-78608 500 nM, glycine 100 µM, control 81 ± 13 ms) is listed as 1642 ± 183 ms. Moreover, at GluN1/GluN3A receptors [2] (CGP-78608 500 nM), the “Potentiation when applied after glycine (post-Gly), steady-state” value is on record as “greatly reduced”. In addition, the “Potentiation of glycine responses in oocytes” value on GluN1/GluN3A receptors [2] (CGP-78608 500 nM pre-applied) was “massively potentiates”.
In the case of `NCC(=O)O` [glycine, Glycine], the “Glycine off-relaxation τoff” value is reported as 205 ± 110 ms at GluN1/GluN3A receptors [1] (wt receptors, CGP-78608 500 nM, glycine 100 µM); 2217 ± 91 ms in assay [3]; 2098 ± 196 ms in assay [4]; 442 ± 208 ms in assay [5]. Also, the “Glycine nH” value at GluN1/GluN3A receptors [2] (control, no CGP-78608) is 1.39; on GluN1/GluN3A receptors [2] (in presence of 50 nM CGP-78608), 1.58; on GluN1/GluN3A receptors [2] (setting [9]), 1.47; in assay [6] (setting [9]), 1.21. The “Decrease in glycine EC50, mutant vs wild-type” value in assay [6] (in presence of CGP-78608 500 nM) was > 10 fold and 13 fold.
